Values of other authors, collected in patent publication US10888553B2, “Use of non-transition metal coordinated dipyridoxyl compounds to prevent and treat chemotherapy-induced PSN” (KARLSSON-TUNER INVEST AS, priority 2016, dated 2021).

System: organic cation transporter 2 (OCT2)
Conditions: overexpression of OCT2; cited from earlier work

O=C(O)C(=O)O.[NH-][C@@H]1CCCC[C@H]1[NH-].[Pt+2] [oxaliplatin]
increase in neuronal uptake of oxaliplatin: up to 35 fold
